Legend:
Experiment in all cases: In vitro MMP inhibition, fluorogenic peptide substrate
Recombinant human MMP-1 = Recombinant human MMP-1 (Homo sapiens, UniProt P03956); conditions: read-out: MMP-1 IC50; Inhibition Table A
Recombinant human MMP-2 = Recombinant human MMP-2 (Homo sapiens, UniProt P08253); conditions: read-out: MMP-2 IC50; Inhibition Table A
Recombinant human MMP-13 = Recombinant human MMP-13 (Homo sapiens, UniProt P45452); format: biochemical; conditions: read-out: MMP-13 IC50; Inhibition Table A

Protein sequences, listed by entry. Tags and fused reporters are not part of them. Residues count along the entry.
UniProt P03956, 100-469 limits assumed: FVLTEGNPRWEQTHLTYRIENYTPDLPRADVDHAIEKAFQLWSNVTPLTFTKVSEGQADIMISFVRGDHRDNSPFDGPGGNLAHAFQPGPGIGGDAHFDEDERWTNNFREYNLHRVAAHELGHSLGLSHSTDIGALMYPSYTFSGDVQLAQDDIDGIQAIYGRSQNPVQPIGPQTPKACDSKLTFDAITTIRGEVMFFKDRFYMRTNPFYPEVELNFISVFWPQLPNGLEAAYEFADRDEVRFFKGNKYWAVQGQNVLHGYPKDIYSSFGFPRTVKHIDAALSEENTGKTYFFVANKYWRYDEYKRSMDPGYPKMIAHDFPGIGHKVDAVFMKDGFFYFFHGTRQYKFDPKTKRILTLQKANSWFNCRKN
UniProt P08253, 110-660 limits assumed: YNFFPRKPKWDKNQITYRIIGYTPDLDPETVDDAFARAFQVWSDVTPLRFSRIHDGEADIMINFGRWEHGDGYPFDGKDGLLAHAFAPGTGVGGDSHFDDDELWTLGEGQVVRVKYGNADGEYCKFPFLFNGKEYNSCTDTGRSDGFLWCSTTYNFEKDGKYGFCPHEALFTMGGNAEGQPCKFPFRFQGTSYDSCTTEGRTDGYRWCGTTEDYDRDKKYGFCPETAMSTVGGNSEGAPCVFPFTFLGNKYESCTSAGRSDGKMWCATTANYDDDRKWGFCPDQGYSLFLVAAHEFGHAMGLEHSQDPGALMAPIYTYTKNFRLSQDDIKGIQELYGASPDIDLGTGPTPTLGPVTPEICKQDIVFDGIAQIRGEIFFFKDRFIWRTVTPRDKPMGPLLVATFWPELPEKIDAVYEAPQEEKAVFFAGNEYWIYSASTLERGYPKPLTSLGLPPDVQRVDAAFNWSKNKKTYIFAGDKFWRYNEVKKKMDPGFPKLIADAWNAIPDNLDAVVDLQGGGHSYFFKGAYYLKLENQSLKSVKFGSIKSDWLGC

O=C(O)c1ccccc1S(=O)(=O)N1CCC(Oc2ccc(C(F)(F)F)cc2)CC1
IC50 (Recombinant human MMP-1): > 10 µM | IC50 (Recombinant human MMP-2): 3.3 µM | IC50 (Recombinant human MMP-13): 3.8 µM

Reference: patent publication US6683078B2, “Use of sulfonyl aryl or heteroaryl hydroxamic acids and derivatives thereof as aggrecanase inhibitors” (priority 2001, dated 2004)
